Data from patent publication US20080044484A1, “Use of polymeric nanoparticles for vaccine delivery” (THE REGENTS OF THE UNIVERSITY OF CALIFORNIA, priority 2004, published 2008).

Key:
[1] = test system: breast cancer cells MDA-MB-231; assay: IFNγ release by CTL (ELISA) after incubation with peptide-loaded MDA-MB-231 cells; type: cell-based, human; conditions: CTL elicited with the corresponding HER2/neu peptide, 20 h, 10^5 CTL/well
Experimental: (§1) In interferon gamma release assays, 10^5 HER2/neu-specific CTL were co-incubated with 10^5 peptide-loaded tumor cells for 20 hours at 37° C. The concentration of human interferon gamma in co-cultured supernatants was then determined by ELISA. The results of the ELISA experiments are shown in Table 39 A-D. These findings are in parallel with the ^51Cr-release experiments, and confirm that the most efficient constructs in facilitating the HER2/neu peptide presentation are the constructs of the type HER-IN-AF.

T2 cells [2] = assay: IFNγ release by CTL (ELISA) after incubation with peptide-loaded T2 cells; type: cell-based, human; conditions: CTL elicited with the corresponding HER2/neu peptide, 20 h, 10^5 CTL/well
Experimental: as §1, with “gamma-release” for “gamma release”, “T2” for “tumor”, “concentrations” for “concentration”, “were” for “was”, “table 37” for “Table 39”, “HER-IN-AF. As in the ^51Cr-release experiments, the constructs with the peptides HER369-377 and HER654-662 were the most efficient, while the constructs with the peptide HER789-797 were the least efficient, especially on days 5 and 8 after peptide loading.” for “HER-IN-AF.”

[3] = test system: ICP47-transfected cells MCF7; assay: Functional blockade of TAP by ICP47, 51Cr-release from peptide-loaded cells; type: cell-based, human; conditions: for Percent 51Cr Released From ICP47-transfected MCF7 cells loaded with the construct: CTL reactive against the corresponding HER2/neu peptide, 3 days after peptide loading, 6-hour assay
From the text: Another aspect in these studies was to determine the mechanisms of enhancement of the antigen presentation by the fusion peptides in human tumor cell lines. Therefore, a new test system was developed utilizing the Herpes Simplex virus (HSV) protein ICP47. ICP47 is a cytoplasmic protein, which interferes with antigen presentation by physically associating with TAP within the cell and inhibiting peptide transport across the ER-membrane. By transfecting the ICP47 gene into several cancer cell lines a novel system for screening different fusion peptides for TAP-independent translocation of peptide antigens through the ER-membrane was generated.
The breast cancer cell line MCF7 was transfected with ICP47, and observed permanent block of the function of TAP, and therefore lack of recognition of these cells by the CTL, which normally recognize and kill them. […] The expression of these antigens was detected by ^51Cr-release assays. […] This confirms that the signal sequence approach is very effective in improving antigen presentation, even in tumor cells with deficiency of antigen processing/presentation.

T2 cells [4] = assay: 51Cr-release assay using T2 cells pulsed with HER2/neu-derived peptides as targets for CTL; conditions: T2 pulsed with the peptide; percentage of specific lysis
[5] = test system: breast cancer cells MDA-MB-231; assay: 51Cr-release assay, MDA-MB-231 cells loaded or pulsed with signal sequence constructs; type: cell-based, human; conditions: loading; days 1-8 after loading
From the text: ^51Cr-release assays were used to test to see if the low HER2/neu-expressing breast cancer cells MDA-MB-231 can be recognized more efficiently by the HER2/neu-specific CTL after loading with the fusion peptides. Determination was also made by ELISA to see if the peptide-loaded breast cancer cells can induce release of interferon gamma by the HER2/neu-specific CTL.
The lysis of the tumor cells by the HER2/neu-specific CTL was monitored in a conventional ^51Cr-labeling release assay. Briefly, peptide-loaded tumor cells were added to serially diluted effectors in 96-well microplates. After a 6-h incubation at 37° C., supernatants were harvested and counted in a gamma counter. Results are expressed as the percentage of specific lysis and determined as follows: [(experimental cpm−spontaneous cpm)/(maximum cpm−spontaneous cpm)]×100.
Peptide-loaded breast cancer cells MDA-MB-231 were tested for their ability to present HER2/neu peptides at different periods of time after loading or pulsing. Tumor cells loaded with the constructs composed of signal sequence at the amino-terminus of the peptides were recognized by CTL up to eight days after loading (FIGS. 12-13, left column). In contrast, constructs with carboxy-terminal position of the signal sequence were not efficient, even when ^51Cr-release assays were performed immediately after loading. […]

T2 cells [6] = assay: 51Cr-release assay, T2 cells loaded or pulsed with signal sequence constructs, at periods after loading; type: cell-based, human; conditions: Eight days after loading
From the text: By “loading” of the fusion peptides into the cytosol of T2 cells, cancer cells and dendritic cells is meant use of a technology called “osmotic lysis of pinocytic vesicles.” T2 cells were exposed to hypertonic medium containing the peptide constructs. Pinocytic vesicles form in this medium, and because of their increased internal osmotic pressure, they break in the cytosol when the cells are placed in hypotonic culture medium. The invention is based on a hypothesis that the signal sequence will translocate the minimal tumor-specific peptide from the cytosol into the ER, improving its presentation to CTL.
The induction of CTL in human PBMC was monitored in a conventional ^51Cr-labeling release assay. Briefly, peptide-pulsed TAP^−/HLA-A2.1^+ human T2 cells were incubated with 10 μg of HER2/neu peptides or the MART-1 control peptide for 90 min during labeling with ^51Cr. After washing, the target cells were added to serially diluted effectors in 96-well microplates. After a 6-h incubation at 37° C., supernatants were harvested and counted in a gamma counter. Results are expressed as the percentage of specific lysis and determined as follows: [(experimental cpm−spontaneous cpm)/(maximum cpm−spontaneous cpm)]×100. (Table 36).
Peptide-loaded or pulsed T2 cells were tested for their ability to present HER2/neu peptides at different periods of time after loading or pulsing. […]

Row | Substance | Release of IFNγ by CTL, MDA-MB-231 cells loaded with the peptide ([1]; Day 1 after peptide loading) | Release of IFNγ by CTL, MDA-MB-231 cells loaded with the peptide ([1]; Day 3 after peptide loading) | Release of IFNγ by CTL, MDA-MB-231 cells loaded with the peptide ([1]; Day 5 after peptide loading) | Release of IFNγ by CTL, MDA-MB-231 cells loaded with the peptide ([1]; Day 8 after peptide loading) | Release of IFNγ by CTL, T2 cells loaded with the peptide (T2 cells [2]; Day 1 after peptide loading) | Release of IFNγ by CTL, T2 cells loaded with the peptide (T2 cells [2]; Day 3 after peptide loading) | Release of IFNγ by CTL, T2 cells loaded with the peptide (T2 cells [2]; Day 5 after peptide loading) | Release of IFNγ by CTL, T2 cells loaded with the peptide (T2 cells [2]; Day 8 after peptide loading) | Percent 51Cr Released From ICP47-transfected MCF7 cells loaded with the construct ([3]; E:T 20:1) | Percent 51Cr Released From ICP47-transfected MCF7 cells loaded with the construct ([3]; E:T 40:1) | 51Cr-release, E:T ratio 1.5:1 (T2 cells [4]) | 51Cr-release, E:T ratio 3.1 (T2 cells [4]) | 51Cr-release, E:T ratio 6:1 (T2 cells [4]) | 51Cr-release, E:T ratio 12:1 (T2 cells [4]) | 51Cr-release, E:T ratio 25:1 (T2 cells [4]) | 51Cr-release, E:T ratio 50:1 (T2 cells [4]) | Restoration of antigen presentation in ICP47-transfected breast cancer cells ([3]; 51Cr-release) | Recognition by CTL of MDA-MB-231 cells loaded with the peptide (51Cr-release) [5] | specific 51Cr-release of loaded T2 cells (T2 cells [6])
1 | KIFGSLAFL MTNKCLLQIALLLCFSTTALS (KIFGSLAFLMTNKCLLQIALLLCFSTTALS) [HER369-377-IS] | 224 pg/mL | 131 pg/mL | 128 pg/mL | 113 pg/mL | 212 pg/mL | 112 pg/mL | 117 pg/mL | 103 pg/mL | – | – | – | – | – | – | – | – | – | – | –
2 | MTNKCLLQIALLLCFSTTALS KIFGSLAFL (MTNKCLLQIALLLCFSTTALSKIFGSLAFL) [IS-HER369-377] | 2126 pg/mL | 1777 pg/mL | 1444 pg/mL | 587 pg/mL | 2120 pg/mL | 1818 pg/mL | 1323 pg/mL | 545 pg/mL | 3% | 2% | – | – | – | – | – | – | – | – | –
3 | KIFGSLAFL MRYMILGLLALAAVCSA (KIFGSLAFLMRYMILGLLALAAVCSA) [HER369-377-ES] | 182 pg/mL | 187 pg/mL | 137 pg/mL | 122 pg/mL | 172 pg/mL | 142 pg/mL | 121 pg/mL | 118 pg/mL | – | – | – | – | – | – | – | – | – | – | –
4 | KIFGSLAFL [HER2/neu369-377, reference compound] | 2820 pg/mL | 141 pg/mL | 274 pg/mL | 99 pg/mL | 3120 pg/mL | 127 pg/mL | 211 pg/mL | 89 pg/mL | – | – | 12% | 23% | 42% | 57% | 66% | 94% | – | – | –
5 | M R KIFGSLAFL A A V C S A (MRKIFGSLAFLAAVCSA) [HER369-377-IN-ES] | 2627 pg/mL | 2187 pg/mL | 1778 pg/mL | 687 pg/mL | 2227 pg/mL | 2029 pg/mL | 1663 pg/mL | 690 pg/mL | 3% | 4% | – | – | – | – | – | – | – | – | –
6 | M A KIFGSLAFL A A A A A G (MAKIFGSLAFLAAAAAG) [HER369-377-IN-AF] | 3381 pg/mL | 2347 pg/mL | 1897 pg/mL | 889 pg/mL | 3288 pg/mL | 2401 pg/mL | 1773 pg/mL | 878 pg/mL | 24% | 58% | – | – | – | – | – | – | able to restore the antigen presentation | still lysed | more than 60%
7 | MRYMILGLLALAAVCSA KIFGSLAFL (MRYMILGLLALAAVCSAKIFGSLAFL) [ES-HER369-377] | 3688 pg/mL | 2417 pg/mL | 1278 pg/mL | 577 pg/mL | 3368 pg/mL | 2377 pg/mL | 1073 pg/mL | 592 pg/mL | 2% | 1% | – | – | – | – | – | – | – | – | –
